{
  "sequences": {"note": "Sequences of proteins named here, by UniProt entry; tags and fusion partners are left off.", "UniProt P35462, whole entry": "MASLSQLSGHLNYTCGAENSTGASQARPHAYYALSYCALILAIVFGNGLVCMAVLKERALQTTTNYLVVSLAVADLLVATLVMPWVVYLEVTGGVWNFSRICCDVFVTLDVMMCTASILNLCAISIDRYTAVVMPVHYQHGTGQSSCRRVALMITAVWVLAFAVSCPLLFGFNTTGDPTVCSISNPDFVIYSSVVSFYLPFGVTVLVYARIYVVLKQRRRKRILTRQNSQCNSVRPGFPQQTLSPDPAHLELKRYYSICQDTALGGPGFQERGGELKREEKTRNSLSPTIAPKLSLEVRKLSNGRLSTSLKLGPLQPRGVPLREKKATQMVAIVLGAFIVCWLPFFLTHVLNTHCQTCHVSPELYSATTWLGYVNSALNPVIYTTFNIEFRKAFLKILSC", "UniProt P14416, whole entry": "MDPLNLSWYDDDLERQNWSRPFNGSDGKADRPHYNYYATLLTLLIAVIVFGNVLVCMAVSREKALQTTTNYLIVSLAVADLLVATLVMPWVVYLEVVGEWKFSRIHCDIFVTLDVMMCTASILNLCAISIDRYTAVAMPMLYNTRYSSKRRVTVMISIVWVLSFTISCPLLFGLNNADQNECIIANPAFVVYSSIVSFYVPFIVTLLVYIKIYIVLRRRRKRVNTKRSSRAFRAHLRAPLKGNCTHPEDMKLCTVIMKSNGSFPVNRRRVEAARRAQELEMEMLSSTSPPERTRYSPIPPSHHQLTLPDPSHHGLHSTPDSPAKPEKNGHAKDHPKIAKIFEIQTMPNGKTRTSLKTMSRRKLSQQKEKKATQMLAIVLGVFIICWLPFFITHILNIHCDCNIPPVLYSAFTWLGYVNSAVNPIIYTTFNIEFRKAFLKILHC"},
  "source": "ChEMBL document CHEMBL1134894",
  "about": "“Fused azaindole derivatives: molecular design, synthesis and in vitro pharmacology leading to the preferential dopamine D3 receptor agonist FAUC 725” (Bioorg Med Chem Lett, 2002)",
  "key": {"D(3) dopamine receptor [1]": {"molecular_target": "T1, D(3) dopamine receptor (Homo sapiens, UniProt P35462)", "experiment": "Effective concentration required for agonistic activity against human D3 receptor", "assay_type": "functional"}, "D(3) dopamine receptor [2]": {"molecular_target": "T1, D(3) dopamine receptor", "experiment": "Binding affinity of compound measured using [3H]-spiperone for the cloned human Dopamine receptor D3 (high/low affinity is given as 25/1600)"}, "D(2) dopamine receptor [3]": {"molecular_target": "T2, D(2) dopamine receptor (Homo sapiens, UniProt P14416)", "experiment": "Binding affinity of compound measured using [3H]spiperone for the cloned human dopamine receptor D2 long (high/low affinity is given as 9.0/1800)"}, "D(2) dopamine receptor [4]": {"molecular_target": "T2, D(2) dopamine receptor", "experiment": "Binding affinity of compound measured using [3H]spiperone for the cloned human dopamine receptor D2 short (high/low affinity is given as 27/1800)"}},
  "data": [
    {"smiles": "CCCN1CCC[C@@H](c2cccc(O)c2)C1", "note": "[PRECLAMOL]", "values": [
      {"measurement": "EC50", "setting": "D(3) dopamine receptor [1]", "value": 9.8, "unit": "nM"},
      {"measurement": "Ki", "setting": "D(3) dopamine receptor [2]", "value": 25, "unit": "nM"},
      {"measurement": "Ki", "setting": "D(2) dopamine receptor [3]", "value": 9, "unit": "nM"},
      {"measurement": "Ki", "setting": "D(2) dopamine receptor [4]", "value": 27, "unit": "nM"}
    ]}
  ]
}
